Data on 54 molecules can be found in PubChem BioAssay AID881 (National Center for Advancing Translational Sciences (NCATS), 2007).

By UniProt entry, the sequences of proteins in these tests, tags left out. Where a name states a change or a piece, a line headed by the entry shows the natural chain unless it says otherwise.
UniProt O15296: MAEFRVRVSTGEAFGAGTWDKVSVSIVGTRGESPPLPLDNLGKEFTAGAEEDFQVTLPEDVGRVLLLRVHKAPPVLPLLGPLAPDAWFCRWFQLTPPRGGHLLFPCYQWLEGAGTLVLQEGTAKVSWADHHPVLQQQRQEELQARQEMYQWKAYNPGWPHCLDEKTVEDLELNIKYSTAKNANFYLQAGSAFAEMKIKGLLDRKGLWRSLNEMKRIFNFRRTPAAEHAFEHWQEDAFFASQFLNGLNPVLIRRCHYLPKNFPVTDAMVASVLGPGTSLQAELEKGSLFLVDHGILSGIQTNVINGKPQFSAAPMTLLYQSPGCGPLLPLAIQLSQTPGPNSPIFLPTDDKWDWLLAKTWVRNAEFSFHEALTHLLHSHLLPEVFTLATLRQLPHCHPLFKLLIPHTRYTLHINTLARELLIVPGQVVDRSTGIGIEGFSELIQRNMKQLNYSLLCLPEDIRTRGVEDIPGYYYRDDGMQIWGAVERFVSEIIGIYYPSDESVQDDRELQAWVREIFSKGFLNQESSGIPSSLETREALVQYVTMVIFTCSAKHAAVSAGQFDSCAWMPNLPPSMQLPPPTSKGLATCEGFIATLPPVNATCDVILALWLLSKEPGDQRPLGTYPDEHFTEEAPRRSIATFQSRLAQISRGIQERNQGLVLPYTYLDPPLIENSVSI

Only a part is listed here, and it is no random draw. Active and inactive are the calls of the source. Calls come from the whole dose curve; as a rule, active = well fitted inhibition curve with a large enough effect; inconclusive = small, poorly fitted or top-dose-only effect; inactive = no such curve, though single readings can be large or run the other way.
% is set by controls: 0 for no effect and ±100 for the full control effect; potency is the fitted concentration of half-maximal effect.

The assay addresses Polyunsaturated fatty acid lipoxygenase ALOX15B (Homo sapiens) (UniProt O15296). In words: qHTS Assay for Inhibitors of 15-hLO-2 (15-human lipoxygenase 2). Note: nearly all actives have a fitted effect of over 60% in size. Particulars: purified 15hLO-2, xylenol orange hydroperoxide absorbance; series mostly up to 57.1 µM; activity change, negative = inhibition: at the top concentration. The text has this: Assay Overview: NIH Molecular Libraries Screening Centers Network [MLSCN] NIH Chemical Genomics Center [NCGC] MLSCN Grant: MH081283-01A1 PI Name: Holman, T.R., University of California, Santa Cruz Human lipoxygenase 15hLO-2 is a member of the closely related lipoxygenase family of enzymes which catalyze the site-specific oxidation of arachidonic acid to various hormone precursor molecules and as such is a candidate for drug development in a variety of disease areas, such as cancer and inflammation. Inhibition of 15hLO-2 activity was screened by utilizing arachidonic acid as a substrate. The extent of hydroperoxide product formation was measured by a secondary chromogenic reaction in which xylenol orange (XO, Sigma-Aldrich, cat. number 39,818-7) reacts with the ferric ions produced from the reaction between the hydroperoxide and ferrous ions. The Fe(III)-XO complex is characterized with red-shifted absorbance at 560 nm. A purified preparation of human 15hLO-2 was supplied by Professor Ted Holman, University of California, Santa Cruz.
Assay Protocol: Buffer: 25 mM Hepes pH 7.5, 0.01% Triton X-100. Reagents/Controls: Buffer in columns 3 and 4 as negative control (no enzyme). Substrate solution: 45 uM arachidonic acid (Sigma-Aldrich, St. Louis, MO) final concentration dispensed throughout the plate. Enzyme: 50 nM 15hLO-2 final concentration in columns 1, 2, 5-48. Column 1 is neutral (100% activity). Column 2 contained pin-transferred titration of NDGA (nordihidroguaiaretic acid, Sigma-Aldrich, N 5023, top concentration 10 mM in DMSO, then 1:2 dilution in duplicate). (Dilution factor: 23 nL into 4 uL.) Chromogenic detection reagent (divalent iron/xylenol orange, Fe-XO): 200 uM xylenol orange plus 300 uM ferrous ammonium sulfate prepared freshly in 50 mM sulfuric acid. Assay Steps: Three uL of enzyme were dispensed to 1536-well Greiner black clear bottom plates. Compounds and controls (23 nL) were transferred via Kalypsys PinTool. The plates were incubated for 15 min at room temperature, and then 1 uL of substrate solution was added to start the reaction. After room temperature incubation for 90 minutes, 4 uL of Fe-XO solution was added to each well followed by a short spin (1000 rpm, 15 sec) and the plates were then incubated for 30 min. The absorbance at 405 and 573 nm were measured using ViewLux (Perkin-Elmer) High-throughput CCD imager and absorbance protocol settings. The 573-to-405 absorbance ratio was used to compute reaction progress.
Background: In qHTS, concentration-response curves come from the screen itself.
As to `O=P1(Nc2nc3ccc(Cl)cc3s2)COc2ccccc2O1` (centres undefined), the “activity change, negative = inhibition” value is inactive: 7.48%.
The same measure, in the same setting: then `CCOC(=O)NC(Sc1ccccc1)C(Cl)(Cl)Cl` (centres undefined), with inactive: -1.61%; and `COC(=O)c1cc2c(s1)N=C(c1ccccc1)N(C)P2(=O)N1CCOCC1` (centres undefined), with inactive: -1.02%.
Consider `CCC(=O)N1C2C3N(C(=O)CC)C1C1N(C(=O)CC)C(C(N1C(=O)CC)N3C(=O)CC)N2C(=O)CC`, for which the “activity change, negative = inhibition” value was inactive: 1.17%.
Still for that read-out and setting: then `Cc1cc([N+](=O)[O-])cc([N+](=O)[O-])c1O`, with inactive: -8.61%; and `[N-]=[N+]=Nc1ccc([As](=O)(O)O)cc1`, with inactive: -8.4% [at 11.4 µM]; and `O=C(OC1CN2CCC1CC2)c1cccc(Cl)c1` (centres undefined), with inactive: 16.4%.
Same read-out and setting: then `c1nnnn1CCn1cnnn1`, with inactive: 7.29%.
On the same count and under the same terms, then `O=P(Nc1nccs1)(c1ccccc1)c1ccccc1`, with inactive: 0.241%.
With `C[C@@H](O)COc1ccc([As](=O)(O)O)cc1N`, the activity change, negative = inhibition was inactive: -2.72% [at 11.4 µM].
On the same count and under the same terms, then `CN1CCC[C@H](OC(=O)C(c2ccccc2)c2ccccc2)C1`, with inactive: -0.424% [at 11.4 µM].
On the same count and under the same terms, then `O=[N+]([O-])c1cccc2n[nH]nc12`, with inactive: -1.87%; and `CC(=O)N1C2C3N(C(C)=O)C1C1N(C(C)=O)C(C(N1C(C)=O)N3C(C)=O)N2C(C)=O`, with inactive: -6.99%.
On the same count and under the same terms, the figure for `CCc1nc2c(n1)c1c(non1O)c1c2no[n+]1[O-]` is inactive: 1.49%.
`O=C(CO)Nc1ccc([As](=O)(O)O)cc1`: the activity change, negative = inhibition is inactive: -3.47% [at 11.4 µM].
Turning to `CC(=O)C1=CCCC2CCC1N2` (centres undefined), the activity change, negative = inhibition is inactive: -2.43% [at 0.0915 µM].
Take `CC1CCN(C(=O)Oc2c(Cl)cc(Cl)c3cccnc23)CC1`: the “activity change, negative = inhibition” value was inactive: 8%.
Same read-out and setting: the figure for `CN(C(=O)Cc1ccccc1)[C@@H]1CC[C@@]2(CCCO2)C[C@H]1N1CCCC1` is inactive: 18.3%; for `CCOP(=O)(Nc1ccccc1)OCC` it is inactive: -6.4%; for `CN(C(=O)Cc1ccc(Cl)c(Cl)c1)[C@H]1CCCC[C@@H]1N1CCCC1` it is “inactive”.
Still for that read-out and setting: the figure for `C(Cc1nn[nH]n1)c1nn[nH]n1` is inactive: -1.78% [at 11.4 µM]; for `[N-]=[N+]=NCC(O)CN=[N+]=[N-]` (centres undefined) it is inactive: 4.78% [at 11.4 µM]; for `O=[N+]([O-])c1ccc(C[As](=O)(O)O)cc1` it is inactive: -11.1% [at 11.4 µM].
The same measure, in the same setting: then `NCC[C@@H](N)CSP(=O)(O)O`, with inactive: -2.44% [at 11.4 µM]; and `CC(C)CC(=O)NC(Sc1ccc(Cl)cc1)C(Cl)(Cl)Cl` (centres undefined), with inactive: -9.9%.
As for `Oc1ccccc1CNc1ccccn1`, the “activity change, negative = inhibition” value was inactive: -3.81%.
On to `Cc1c2non([O-])c-2c(C)[n+](=O)[n+]1[O-]`, for which the “activity change, negative = inhibition” value was inactive: 5.87%.
Same read-out and setting: then `NC(=O)Nc1cc([As](=O)(O)O)cc(I)c1O`, with inactive: -1.48% [at 11.4 µM]; and `O=C(OC1CN2CCC1CC2)C12CC3CC(CC(C3)C1)C2` (centres undefined), with inactive: 13.3%; and `CCN(CC)C(=S)SC(NC=O)C(Cl)(Cl)Cl` (centres undefined), with inactive: -11.8%.
As to `[N-]=[N+]=NCC(N)=O`, the activity change, negative = inhibition was inactive: 12% [at 11.4 µM].
The same measure, in the same setting: then `O=[As]c1ccc(S(=O)(=O)NCCO)cc1` (centres undefined), with inactive: -0.712% [at 11.4 µM].
With `CN(N=O)C(=N)N[N+](=O)[O-]`, the “activity change, negative = inhibition” value is inactive: -11.3%.
The same measure, in the same setting: then `O=C(COc1ccccc1)OC1CN2CCC1CC2` (centres undefined), with inactive: -3.44%.
Take `O=C(O)[C@@H](O)c1ccc([As](=O)(O)O)cc1`: the activity change, negative = inhibition was inactive: -4.27% [at 11.4 µM].
On the same count and under the same terms, the figure for `COP1(=S)c2c(C)nn(CCC#N)c2N=C(c2ccc(F)cc2)N1C` (centres undefined) is inactive: -0.805%; for `Clc1n[nH]nc1-c1nn[nH][15n]1` it is inactive: 3.27%.
On the same count and under the same terms, the figure for `CN(CCCl)Cc1cc(Cl)c(NC2=NCCN2)c(Cl)c1` is inactive: 18.2%.
Still for that read-out and setting: then `O=P1(Nc2ccccn2)COc2ccccc2OC1`, with inactive: 0.896%; and `CN(C(=O)Cc1ccc(Cl)c(Cl)c1)[C@@H]1CCCC[C@H]1N1CCCC1`, with “inactive”.
Take `Cc1nn(-c2ccccc2)c2c1P(=O)(N1CCOCC1)N(C)C(c1ccccc1)=N2` (centres undefined): the “activity change, negative = inhibition” value is inactive: -4.94%.
The same measure, in the same setting: then `Cc1ccc(OCC(=O)OC2CN3CCC2CC3)cc1` (centres undefined), with inactive: -1.36% [at 11.4 µM]; and `O=P1(Nc2ccc(Br)cn2)COc2ccccc2OC1`, with inactive: -9.39%.
As for `O=P1(Nc2ncccn2)COc2ccccc2OC1`, the “activity change, negative = inhibition” value was inactive: -1.18%.
The same measure, in the same setting: then `O=[As](O)(O)c1ccc([As](=O)(O)O)cc1`, with inactive: -3.87% [at 11.4 µM]; and `CCOP1(=S)c2c(C)nn(CCC#N)c2N=C(c2ccccc2F)N1C` (centres undefined), with inactive: -6.89%.
With `O=P(Nc1nccs1)(c1ccccc1)c1nc2ccccc2s1` (centres undefined), the Potency is active: 7.94 µM.
Take `O=[N+]([O-])c1ccc2c(c1)nnn2O`: the “activity change, negative = inhibition” value was inactive: -1.72%.
On the same count and under the same terms, then `CCOP1(=S)c2c(C)nn(CCC#N)c2N=C(c2ccc(F)cc2)N1C` (centres undefined), with inactive: -10.9%; and `NC(=O)Nc1ccc([As](=O)(O)O)cc1`, with “inactive”; and `Cc1cccc(OCC(=O)OC2CN3CCC2CC3)c1` (centres undefined), with inactive: -1.4%.
For `CN(C(=O)Cc1ccc(Cl)c(Cl)c1)[C@@H]1CC[C@@]2(CCCO2)C[C@H]1N1CCCC1`, the “activity change, negative = inhibition” value was inactive: 23.2%.
The same measure, in the same setting: then `NS(=O)(=O)Cc1ccc([As](=O)(O)O)cc1`, with inactive: 4.25% [at 11.4 µM].
In the case of `O=C(CC(=O)c1ccccc1)O[C@H]1CN2CCC1CC2`, the activity change, negative = inhibition is inactive: -0.145% [at 11.4 µM].
